For 1 molecule, Axl expression downregulated results are on record in patent publication US20090087431A1, “METHODS OF TREATING BONE DISORDERS WITH MODULATORS OF AXL” (Wyeth, priority 2007, published 2009).

One assay relates to C3H10T½ cells. In words: BMP2 effect on Axl gene expression, quantitative RT-PCR. It is filed as cell-based, murine. Conditions: 100 ng/ml or 320 ng/ml rhBMP2, within 24 hours of treatment. As for the experimental part:
(§1) The effect of the osteoinductive factor BMP2 on Axl gene expression was assayed in two murine mesenchymal cell lines, C3H10T½pluripotent mesenchymal cells and Clone 14 murine limb bud progenitor cells. Briefly, C3H10T½ or Clone 14 cells were incubated in the presence of either 100 ng/ml or 320 ng/ml rhBMP2. Samples were obtained at 2, 6, and 24 hours post addition of rhBMP2 and the amount of Axl measured using quantitative RT-PCR. […] C14: Clone 14 cells; 10T½: C3H10T½ cells.

In a further assay the test system is Clone 14 cells. The description is as above. It is filed as cell-based, murine. As to conditions: 100 ng/ml or 320 ng/ml rhBMP2, within 24 hours of treatment. Here is the method: as §1

B1: rhBMP2: recombinant human bone morphogenetic protein 2, osteoinductive factor (protein, UniProt P12643 283-396, looked up)
Bone morphogenetic protein 2: QAKHKQRKRLKSSCKRHPLYVDFSDVGWNDWIVAPPGYHAFYCHGECPFPLADHLNSTNHAIVQTLVNSVNSKIPKACCVPTELSAISMLYLDENEKVVLKNYQDMVVEGCGCR
Turning to B1, the Axl expression downregulated result in the assay with C3H10T½ cells and in the assay with Clone 14 cells was “approximately two-fold” in each case.
